Here are results for two compounds from patent US6258825A, “2-oxoimidazole derivatives” (dated 2001).

Amino acid sequences for entries named in this document (tags omitted).
UniProt P41146, whole entry: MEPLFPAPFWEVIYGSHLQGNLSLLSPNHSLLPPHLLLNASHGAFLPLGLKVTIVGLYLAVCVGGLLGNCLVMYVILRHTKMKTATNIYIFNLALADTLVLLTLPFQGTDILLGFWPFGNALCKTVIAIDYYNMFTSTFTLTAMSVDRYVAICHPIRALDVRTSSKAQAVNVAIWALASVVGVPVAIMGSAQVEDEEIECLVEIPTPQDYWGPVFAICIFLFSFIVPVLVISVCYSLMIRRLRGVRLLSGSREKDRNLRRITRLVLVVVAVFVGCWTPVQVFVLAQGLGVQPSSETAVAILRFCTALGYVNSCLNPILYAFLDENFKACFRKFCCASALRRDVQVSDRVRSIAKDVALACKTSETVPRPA

Assay [1] addresses T1, nociceptin receptor ORL1 (Homo sapiens, UniProt P41146). The assay is described as follows: Nociceptin receptor binding inhibition assay. As to conditions: read-out: IC50 value (nociceptin receptor binding inhibition effect); [125I]Tyr14-Nociceptin 50 pM, CHO/ORL1 membrane 11 μg, SPA, pH 7.4, 37° C., 60 minutes. The procedure: (§1) cDNA which codes a human nociceptin receptor gene was cloned into an expression vector pCR3 (Invitrogen) to prepare pCR3/ORL1. Next, pCR3/ORL1 was transfected in CHO cells using a transfectam (Nippongene) to obtain a stable expression strain (CHO/ORL1 cells) having resistance against 1 mg/ml G418. Membranes were prepared from this stable expression strain to carry out a receptor binding assay.
The membrane of 11 μg, 50 pM [^125 I] Tyr^14 -Nociceptin (Amersham), 1 mg SPA (Amersham) and a tested compound were suspended in an NC buffer (50 mM Hepes, 10 mM sodium chloride, 1 mM magnesium chloride, 2.5 mM calcium chloride, 0.1% BSA, 0.025% bacitracin, pH 7.4) and incubated at 37° C. for 60 minutes, and then the radioactivity was determined. The binding activity to the nociceptin receptor was shown by the 50% inhibition concentration (IC50 value) of [^125 I] Tyr^14 -Nociceptin binding by the compounds of the present invention having various concentrations.

Assay [2] has as its target T1, nociceptin receptor ORL1. Nature of the assay: Antagonism against nociceptin-elicited G protein activation. Particulars: read-out: IC50 Value (antagonism against nociceptin-elicited G protein activation); GTPγ[35S] binding 200 pM, 50 nM nociceptin, CHO/ORL1 membrane, SPA, pH 7.4, 25° C., 150 minutes. The procedure:
as §1
CHO cells which stably expressed a nociceptin receptor ORL1 were used to investigate the action of a tested compound against nociceptin-elicited G protein activation. A membrane prepared from the CHO/ORL1 cell, 50 nM nociceptin, 200 pM GTP γ[^3 S] (NEN), 1.5 mg SPA (Amersham) and the tested compound were mixed in a GDP buffer (20 mM Hepes, 100 mM sodium chloride, 10 mM magnesium chloride, 1 mM EDTA, 5 μM GDP, pH 7.4) and incubated at 25° C. for 150 minutes, and then the radioactivity was determined. The antagonism against nociceptin-elicited G protein activation was shown by the 50% inhibition concentration (IC50 value) of GTP γ[^35 S] binding by the compounds of the present invention having various concentrations.
(GTPγS resists hydrolysis and so accumulates on activated G proteins.)

Some compounds may have been tested in ways that are not shown here.

As to `CCn1c(=O)n(C2CCN(CC3CCCCCCC3)CC2)c2ccccc21`, the IC50 turned out to be 0.0061 µM at nociceptin receptor ORL1 [1] and 0.018 µM on nociceptin receptor ORL1 [2].

As for `O=c1[nH]c2ccccc2n1C1CCN(CC2CCCCCCC2)CC1`, the IC50 is 0.008 µM at nociceptin receptor ORL1 [1] and 0.67 µM on nociceptin receptor ORL1 [2].

As a reminder, the IC50 is the concentration that gives 50% inhibition.
